This passage reports IC50 results from publication PMC6384821, “Novel Approach for the Search for Chemical Scaffolds with Activity at Both Acetylcholinesterase and the α7 Nicotinic Acetylcholine Receptor: A Perspective on Scaffolds with Dual Activity for the Treatment of Neurodegenerative Disorders” (Molecules, 2019).

Amino acid sequences for entries named in this document (tags omitted). Residues count along the entry.
UniProt O42275, 24-633: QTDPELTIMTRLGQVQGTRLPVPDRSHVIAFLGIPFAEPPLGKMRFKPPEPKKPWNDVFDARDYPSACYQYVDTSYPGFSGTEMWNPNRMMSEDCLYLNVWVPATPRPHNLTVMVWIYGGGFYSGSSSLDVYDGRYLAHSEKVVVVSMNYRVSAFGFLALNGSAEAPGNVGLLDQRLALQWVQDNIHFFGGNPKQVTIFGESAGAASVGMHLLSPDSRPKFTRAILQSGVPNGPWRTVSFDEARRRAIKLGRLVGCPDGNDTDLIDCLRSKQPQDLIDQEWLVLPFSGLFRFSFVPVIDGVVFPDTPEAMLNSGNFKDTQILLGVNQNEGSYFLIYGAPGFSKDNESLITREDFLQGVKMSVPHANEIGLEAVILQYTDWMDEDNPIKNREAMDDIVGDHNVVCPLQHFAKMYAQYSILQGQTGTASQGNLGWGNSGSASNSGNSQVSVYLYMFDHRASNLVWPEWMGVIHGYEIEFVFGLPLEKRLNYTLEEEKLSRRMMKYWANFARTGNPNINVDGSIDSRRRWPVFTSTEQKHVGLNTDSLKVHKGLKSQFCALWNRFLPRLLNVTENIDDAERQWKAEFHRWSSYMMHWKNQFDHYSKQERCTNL

The structures appear in SMILES notation.

In the assay the target is T1, AChE enzyme from Electrophorus electricus (Electrophorus electricus, UniProt O42275).
T1 construct: purchased Sigma-Aldrich Co., LLC
The assay can be described thus: biochemical. On the procedure: For assessment of AChE inhibitory activity, we used a colorimetric microplate assay based on the colour change during reaction of ACh with Ellman’s reagent.
In vitro AChE inhibitory activity was studied using the colorimetric method of Ellman using the AChE enzyme from Electrophorus electricus. To a 96-well microplate, test solutions were applied along with 0.2 mg/mL bovine serum albumin, 1 mM 5,5-dithiobis-(2-nitro-benzoic acid), and 0.05 mM acetylthiocholine iodide. The reaction was initiated by addition of 0.20 units/mL AChE enzyme and followed by colorimetric detection performed at 405 nm. Experiments were conducted in triplicate.
Electrophysiological data were analysed using pClamp 10.2 (Molecular Devices, San Jose, CA, USA). During analysis, traces were baseline subtracted and responses to individual applications quantified as peak-current amplitudes. […] For evaluation of the inhibitory activity, the percentage of remaining peak-current amplitudes relative to that of the AChcontrol application was calculated. […] AChE inhibition data were analysed using GraphPad Prism 7. Absorption readings from the AChE inhibition assay were plotted versus time and linear regression was performed. From the obtained slopes, percentages of inhibition were calculated, and IC50 values were determined from non-linear regression calculations.

As to `CNC(=O)Oc1ccc2c(c1)[C@]1(C)CCN(C)[C@@H]1N2C` [Compound 5, Physostigmine, reference compound], the IC50 was found to be 780 nM (AChE IC50) and 741 nM (AChE pIC50 ± SEM).

A word on the IC50: it is the concentration at which inhibition is half-maximal.
